Assay results: publication PMC6646333 (Nature Communications, 2019)

Settings: statement in the reply to reviewer 1, no method given

Leu10-teixobactin
Solubility compared with teixobactin: worse than teixobactin
